ALDH1A1 inh: inhibitors of human aldehyde dehydrogenase 1A1; Purified ALDH1A1, NADH fluorescence, propionaldehyde substrate; Potency, µM (doses to about 75.3 µM), without a hit: at the highest dose activity, negative = inhibition, actives largely listed as inhibitors; P00352; 220,000 compounds, 7.3% hits; active means well fitted inhibition curve with a large enough effect, not every such curve was filed as active; inconclusive means small, poorly fitted or top-dose-only effect, or another doubt; inactive means no such curve, though single readings can be large or run the other way;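 further: potency means the concentration at half of the fitted maximal effect; plate controls were no enzyme wells and a reference inhibitor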
KDM4E inh: JMJD2E (human) inhibition; B2RXH2; JMJD2E catalytic domain, FDH-coupled NADH fluorescence (FDH is formaldehyde dehydrogenase); AID 2147; Potency, µM (doses to about 57.1 µM), for the others: at the highest dose activity change, negative = inhibition, hits mostly inhibitors; 230,000 compounds, 1.6% hits; active means well fitted inhibition curve with a large enough effect, not every such curve was filed as active; inconclusive means small, poorly fitted or top-dose-only effect, or another doubt; inactive means no such curve, though single readings can be large or run the other way;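 further: potency means the concentration at half of the fitted maximal effect; 0% = wells with enzyme and -100% = buffer wells without enzyme; nearly all actives have a fitted effect of over 50% in size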
G9a inh: G9a (human) methyltransferase inhibition | Q96KQ7 | G9a H3K9 monomethylation, AlphaScreen, 2 h | Potency, µM (titrated, usually from 102 µM), for the others: at the top dose activity, negative = inhibition, most hits filed as inhibitors | 350,000 compounds, 8.8% hits | AID 504332; further: potency means the concentration at half of the fitted maximal effect; on the % scale 0 is the no-effect control and ±100 the full control effect; nearly all actives have a fitted effect of over 75% in size
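Quantitative HTS format: methyltransferase activity on a biotin-tagged H3K9 peptide is measured by AlphaScreen, using a rabbit anti-monomethyl-H3K9 antibody with streptavidin donor and anti-IgG acceptor beads. Final levels are 20 nM enzyme, 500 nM peptide, 20 uM SAM; 2 h RT.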
miR-21 reporter: miR-21 reporter, rising signal | AID 2288 | HeLa miR-21 FLuc reporter, luciferase, 48 h | 340,000 tested, under 10 active | Potency, µM (doses to about 38.3 µM), for inactives: at the top dose reporter change, positive = more light; active = well fitted rising curve with a large enough effect; inconclusive = small, poorly fitted or top-dose-only effect; inactive = no such curve, though single readings can be large or run the other way;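 note: % of control where 0% means no effect; miR-21 action dims this reporter so a rising signal means less miR-21 action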
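Using DMEM plus 10% FBS, HeLa miR-21-FLuc cells are incubated with test compounds (final up to about 40uM) for 48 hours; firefly luciferase signal is then imaged following reagent-mediated lysis.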
Sfp PPTase inh: blocks B. subtilis Sfp PPTase activity | 310,000 compounds, 3.5% hits | Potency, µM, without a hit: max response, negative = inhibition, actives largely listed as inhibitors | Biochemical Sfp PPTase activity, qHTS; active means well fitted inhibition curve with a large enough effect; inconclusive means small, poorly fitted or top-dose-only effect, or another doubt; inactive means no such curve, though single readings can be large or run the other way;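 further: the enzyme is Sfp with the accession as filed and its product quenches rhodamine fluorescence; potency means the concentration at half of the fitted maximal effect; 0% = enzyme reaction without inhibitor and -100% = no enzyme wells; top concentration of the series not given in the record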
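Fluorescence-quenching assay: 15 nM Sfp-PPTase preincubated 15 min at room temperature with compound, then 5 uM rhodamine-CoA and 12.5 uM BHQ-2-labelled YbbR peptide added. Fluorescence (ex 525/em 598 nm) read at start and after 30 min; difference gives rate.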
Lamin A splicing: LMNA splicing modulation | HeLa LMNA splicing GFP/RFP minigene ratio, 48 h | Potency, µM (highest dose often 46.1 µM), for the others: top-dose ratio change, negative = inhibition, usual class: inhibitors | 200,000 compounds, 0.01% hits | AID 1487; active means well fitted inhibition curve with a large enough effect in the signal ratio, with a control signal flat, not every such curve was filed as active; inconclusive means small, poorly fitted or top-dose-only effect, or effect the other way, or a change in a side signal; the % refers to the signal ratio; further: potency means the concentration at half of the fitted maximal effect; on the % scale 0 is the no-effect control and ±100 the full control effect
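S3 HeLa stable clones carrying a lamin A-EGFP splicing minigene plus DsRed2 were seeded at 600 cells/well in Opti-MEM with 2% FBS, pin-dosed and incubated 48 h at 37°C. Acumen cytometry (488 nm) gave the GFP/RFP total-intensity ratio.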
* hit, by the source's call; ? = inconclusive; . = not tested or not shown; [ ] = dose if it differs, or a comment. Rows were chosen to be rich in hits. Some 13% of all compounds tested hit in one or more screens of this group. Unless noted, the call rests on the fitted dose curve; in most records, active means well fitted curve in the direction sought with a large enough effect; inconclusive means small, poorly fitted or top-dose-only effect, or another doubt; inactive means no such curve, though single readings can be large; an effect the other way counts as inactive or inconclusive.

SMILES | ALDH1A1 inh | KDM4E inh | G9a inh | miR-21 reporter | Sfp PPTase inh | Lamin A splicing
Nc1c(C(=O)Nc2cccc(F)c2)nnn1-c1ccc2c(c1)OCCO2 | . | . | ? | -56% | 4% | .
Cc1nc2c(OCc3ccccc3)cccn2c1CC#N | 12% | -13% | -17%[59 µM] | . | 8% | ?
COc1ccc(Cl)cc1NC(=O)COC(=O)CCCC1=NS(=O)(=O)c2ccccc2N1 | . | . | 23% | -1% | 6% | .
Cc1cc(N=Cc2c(O)n(-c3cccc(C(F)(F)F)c3)c(=O)c3ccccc23)no1 | -10% | ? | 4%[59 µM] | 1% | 63µM* | 4%
CCc1cccc(C)c1NS(=O)(=O)c1ccc2c(c1)CC(C)N2C(=O)C1CC1 (configuration not stated) | . | . | -6%[59 µM] | 22% | . | .
CC(C)OCCCNC(=O)C1CCC(CNS(=O)(=O)c2ccc(Cl)cc2)CC1 (configuration not stated) | ? | -3% | 12% | -1% | 11% | ?
CC(C)OCCCNC(=O)C1CCC(CNS(=O)(=O)c2ccccc2)CC1 (configuration not stated) | 3.5µM* | -1% | 6% | -10% | 3% | 1%
Cc1ccc(S(=O)(=O)NCC2CCC(C(=O)NCCCOC(C)C)CC2)cc1 (configuration not stated) | 0.71µM* | 5% | -2%[59 µM] | -1% | 0% | ?
CCCc1cc(=O)oc2cc(OC(C)C(=O)NCC3CCC(C(=O)O)CC3)ccc12 (configuration not stated) | . | . | . | -1% | 13% | .
COc1ccc(CCNc2oc(/C=C/c3ccc(OC)c(OC)c3)nc2C#N)cc1 | . | . | 3%[59 µM] | 5% | . | .
CCN(Cc1ccccc1)c1ccc(N=Nc2nn(C)c(C)c2[N+](=O)[O-])cc1 | -6% | 8% | 10µM* | -61% | -6% | ?
Clc1ccc(-n2nnnc2-c2cnc3ccc(Cl)cc3c2-c2ccccc2)cc1 | . | ? | -16%[59 µM] | 0% | 0% | .
Clc1ccc2ncc(-c3nnnn3-c3ccccc3)c(-c3ccccc3)c2c1 | 11µM* | -6% | -9%[59 µM] | 27% | ? | ?
O=C(Nc1cc2c(cc1C(=O)c1ccccc1Cl)OCCO2)c1ccccc1 | . | . | 41%[59 µM] | 0% | . | .
CC(C)c1ccc(Nc2nc(CC(=O)O)cs2)cc1 | ? | 0% | 40µM* | -48% | -7% | .
O=C(NC1CCCCC1)N(Cc1nc2ccccc2c(=O)[nH]1)C1CCCCC1 | ? | ? | 28µM* | -34% | -25% | 2%
O=C(c1ccccc1)N(Cc1nc2ccccc2c(=O)[nH]1)C1CCCCC1 | 3.5µM* | -17% | ? | 0% | -7% | -4%[46 µM]
O=C(NC1CCCCC1)N(Cc1nc2ccccc2c(=O)[nH]1)C1CCCC1 | -1% | ? | 17% | -1% | 1% | -2%
O=C(c1cccc(F)c1)N(Cc1nc2ccccc2c(=O)[nH]1)C1CCCC1 | -9% | -23% | 16% | -1% | -14% | 0%[9.22 µM]
NC(=O)CNC(=O)[C@@H]1CC2(CC(c3ccc(Cl)cc3)=NO2)CN1C(=O)c1ccccc1 (some centres not stated) | 28µM* | -7% | ? | -1% | 1% | 2%

Retrieved by compound from the entries so far (four):
SMILES | ALDH1A1 inh | KDM4E inh | G9a inh | miR-21 reporter | Sfp PPTase inh | Lamin A splicing
O=C(c1ccccc1)N(Cc1nc2ccccc2c(=O)[nH]1)C1CCCCC1 | 3.5µM* | -17% | ? | 0% | -7% | -4%[46 µM]
Clc1ccc(-n2nnnc2-c2cnc3ccc(Cl)cc3c2-c2ccccc2)cc1 | . | ? | -16%[59 µM] | 0% | 0% | .
O=C(Nc1cc2c(cc1C(=O)c1ccccc1Cl)OCCO2)c1ccccc1 | . | . | 41%[59 µM] | 0% | . | .
Nc1c(C(=O)Nc2cccc(F)c2)nnn1-c1ccc2c(c1)OCCO2 | . | . | ? | -56% | 4% | .

(continued)
SMILES | ALDH1A1 inh | KDM4E inh | G9a inh | miR-21 reporter | Sfp PPTase inh | Lamin A splicing
O=C(CCNC(=O)c1ccc([N+](=O)[O-])cc1)Nc1ccc(F)cc1F | . | . | -20%[2.33 µM] | -1% | 6% | .
COc1ccc(-c2cc(-c3ccccc3)nc(SCC(=O)Nc3ccccc3C)c2C#N)cc1 | . | . | 13µM* | 2% | . | .
N#Cc1c(-c2ccccc2)cc(-c2ccccc2)nc1SCC(O)CS(=O)(=O)Cc1ccc(Cl)cc1 (configuration not stated) | . | . | 1.8µM* | 9% | . | .
COc1ccc(-c2cc(-c3cccs3)c(C#N)c(SCC(=O)NCc3ccco3)n2)cc1 | ? | ? | -1%[59 µM] | 20% | 56µM* | ?
COc1ccc(CNC(=O)CSc2nc(-c3ccccc3)cc(-c3cccs3)c2C#N)cc1 | ? | ? | 24% | -2% | -29% | 10%
